Assay results reported in BindingDB's records for 10091683.

Sequences of proteins named here, by UniProt entry; tags and fusion partners are left off. A change or cut given only in a name is not applied to a line headed by its entry.
UniProt P18031: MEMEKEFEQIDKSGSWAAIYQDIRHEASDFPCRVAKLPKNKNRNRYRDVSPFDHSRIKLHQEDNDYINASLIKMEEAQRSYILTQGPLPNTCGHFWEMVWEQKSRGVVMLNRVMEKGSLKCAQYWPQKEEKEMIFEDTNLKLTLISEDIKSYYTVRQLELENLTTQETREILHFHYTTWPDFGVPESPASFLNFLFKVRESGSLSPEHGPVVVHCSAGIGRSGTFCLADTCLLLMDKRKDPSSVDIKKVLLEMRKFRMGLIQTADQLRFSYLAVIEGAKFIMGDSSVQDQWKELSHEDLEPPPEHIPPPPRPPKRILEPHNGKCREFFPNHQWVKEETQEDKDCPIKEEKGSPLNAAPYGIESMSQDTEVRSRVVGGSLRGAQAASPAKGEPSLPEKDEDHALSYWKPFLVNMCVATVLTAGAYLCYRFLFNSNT

Target: Tyrosine-protein phosphatase non-receptor type 1 (Homo sapiens, UniProt P18031)
Test: ChEBML_162100

How did the pIC50 turn out when O=C(O)c1ccc(I(=O)=O)cc1 was run?
The pIC50 was 3.70.

pIC50: −log10 of the molar value.
